IC50 data for eight molecules are collected here from patent publication US11618753B2 (priority 2018, dated 2023).

Chains of the proteins cited; added tags and fusions are not shown. Lines headed by an entry give the natural chain unless they say otherwise; changes in a name come on top.
UniProt O00329: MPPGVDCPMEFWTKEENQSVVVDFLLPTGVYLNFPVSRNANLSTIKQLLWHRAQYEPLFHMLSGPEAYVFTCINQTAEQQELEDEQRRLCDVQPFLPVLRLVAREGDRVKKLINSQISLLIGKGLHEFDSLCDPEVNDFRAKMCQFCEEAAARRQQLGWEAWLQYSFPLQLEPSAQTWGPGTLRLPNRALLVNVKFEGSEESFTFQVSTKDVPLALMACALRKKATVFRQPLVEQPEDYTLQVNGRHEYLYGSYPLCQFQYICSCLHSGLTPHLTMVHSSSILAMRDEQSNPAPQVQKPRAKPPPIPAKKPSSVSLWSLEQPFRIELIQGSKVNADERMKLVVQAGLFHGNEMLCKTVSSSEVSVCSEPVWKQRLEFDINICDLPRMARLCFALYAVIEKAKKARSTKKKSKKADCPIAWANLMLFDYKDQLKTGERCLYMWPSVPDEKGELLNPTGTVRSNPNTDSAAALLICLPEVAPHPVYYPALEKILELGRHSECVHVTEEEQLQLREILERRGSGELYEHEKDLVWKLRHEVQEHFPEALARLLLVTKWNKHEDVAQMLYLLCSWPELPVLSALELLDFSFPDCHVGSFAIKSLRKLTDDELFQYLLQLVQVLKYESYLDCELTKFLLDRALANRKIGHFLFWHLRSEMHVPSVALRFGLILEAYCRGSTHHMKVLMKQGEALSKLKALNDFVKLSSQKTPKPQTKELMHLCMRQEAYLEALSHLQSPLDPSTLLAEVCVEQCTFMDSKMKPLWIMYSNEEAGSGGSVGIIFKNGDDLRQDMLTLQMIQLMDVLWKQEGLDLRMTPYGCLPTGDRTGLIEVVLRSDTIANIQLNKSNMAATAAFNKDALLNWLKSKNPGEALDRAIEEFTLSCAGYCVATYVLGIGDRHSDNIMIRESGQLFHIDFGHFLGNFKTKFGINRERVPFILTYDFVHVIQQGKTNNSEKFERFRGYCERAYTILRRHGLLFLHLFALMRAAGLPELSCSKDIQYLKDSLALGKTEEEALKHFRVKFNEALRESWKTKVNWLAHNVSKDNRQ

This assay deals with GST-tagged PIK3Cδ in complex with PIK3R1 (Homo sapiens (Human), UniProt O00329). The experiment in a line: biochemical.
With `COc1ncc(-c2cc(CN3CCC(F)(F)CC3)c3c(N)ncnn23)cc1C(=O)N[C@@H]1CN(C(=O)C(C)C(F)(F)F)C[C@@H]1F` (stereo partly drawn) [Example 1266, 5-{4-amino-5-[(4,4-difluoropiperidin-1-yl)methyl]pyrrolo[2,1-f][1,2,4]triazin-7-yl}-N-[(3R,4S)-4-fluoro-1-(3,3,3-trifluoro-2-methylpropanoyl)pyrrolidin-3-yl]-2-methoxypyridine-3-carboxamide], the half-inhibitory concentration (IC50) (usually the concentration that gives 50% inhibition) was over 15 µM.
The figure for `COc1ncc(-c2cc(CN3CCC(F)(F)CC3)c3c(N)ncnn23)cc1C(=O)N[C@@H]1CN(C(=O)c2cc(F)cc(F)c2)C[C@@H]1F` [Example 1267, 5-{4-amino-5-[(4,4-difluoropiperidin-1-yl)methyl]pyrrolo[2,1-f][1,2,4]triazin-7-yl}-N-[(3R,4S)-1-(3,5-difluorobenzoyl)-4-fluoropyrrolidin-3-yl]-2-methoxypyridine-3-carboxamide] is over 15 µM; for `COc1ncc(-c2cc(CN3CCC(F)(F)CC3)c3c(N)ncnn23)cc1C(=O)N[C@@H]1CN(C(=O)c2ccncc2Cl)C[C@@H]1F` [Example 1268, 5-{4-amino-5-[(4,4-difluoropiperidin-1-yl)methyl]pyrrolo[2,1-f][1,2,4]triazin-7-yl}-N-[(3R,4S)-1-(3-chloropyridine-4-carbonyl)-4-fluoropyrrolidin-3-yl]-2-methoxypyridine-3-carboxamide] it is over 15 µM.
The figure for `COc1ncc(-c2cc(CN3CCC(F)(F)CC3)c3c(N)ncnn23)cc1C(=O)N[C@@H]1CN(C(=O)c2ncccc2F)C[C@@H]1F` [Example 1269, 5-{4-amino-5-[(4,4-difluoropiperidin-1-yl)methyl]pyrrolo[2,1-f][1,2,4]triazin-7-yl}-N-[(3R,4S)-4-fluoro-1-(3-fluoropyridine-2-carbonyl)pyrrolidin-3-yl]-2-methoxypyridine-3-carboxamide] is over 15 µM; for `COc1ncc(-c2cc(CN3CCC(F)(F)CC3)c3c(N)ncnn23)cc1C(=O)N[C@@H]1CN(C(=O)c2c(F)cccc2Cl)C[C@@H]1F` [Example 1270, 5-{4-amino-5-[(4,4-difluoropiperidin-1-yl)methyl]pyrrolo[2,1-f][1,2,4]triazin-7-yl}-N-[(3R,4S)-1-(2-chloro-6-fluorobenzoyl)-4-fluoropyrrolidin-3-yl]-2-methoxypyridine-3-carboxamide] it is over 15 µM.
The result for `[2H]C([2H])([2H])Oc1ncc(-c2cc(CN3CC(F)(F)C3)c3c(N)ncnn23)cc1C(=O)N[C@@H]1CN(C(=O)c2ccc(F)cc2)C[C@@H]1F` [Example 1275, 5-{4-amino-5-[(3,3-difluoroazetidin-1-yl)methyl]pyrrolo[2,1-f][1,2,4]triazin-7-yl}-N-[(3R,4S)-4-fluoro-1-(4-fluorobenzoyl)pyrrolidin-3-yl]-2-(methoxy-d3)nicotinamide] reads 4.97 µM.
`[2H]C([2H])([2H])Oc1ncc(-c2cc(CN3CC(F)(F)C3)c3c(N)ncnn23)cc1C(=O)N[C@@H]1CN(S(=O)(=O)CC(F)(F)F)C[C@@H]1F` [Example 1278, 5-{4-amino-5-[(3,3-difluoroazetidin-1-yl)methyl]pyrrolo[2,1-f][1,2,4]triazin-7-yl}-N-[(3R,4S)-4-fluoro-1-(2,2,2-trifluoroethanesulfonyl)pyrrolidin-3-yl]-2-(methoxy-d3)nicotinamide] registered a concentration for half-maximal inhibition (IC50) of over 15 µM.
The figure for `[2H]C([2H])([2H])Oc1ncc(-c2cc(CN3CC(F)(F)C3)c3c(N)ncnn23)cc1C(=O)N[C@@H]1CN(C(=O)CC(C)C)C[C@@H]1F` [Example 1285, 5-{4-amino-5-[(3,3-difluoroazetidin-1-yl)methyl]pyrrolo[2,1-f][1,2,4]triazin-7-yl}-N [(3R,4S)-4-fluoro-1-(3-methylbutanoyl)pyrrolidin-3-yl]-2-(methoxy-d3)nicotinamide] is 5.21 µM.
